Source: PubChem BioAssay AID651955 (The Scripps Research Institute Molecular Screening Center, 2012)
The entries are a selection whose mix differs from that of the whole data set. The source made the active and inactive calls. No stated cut-off is given here; in the data, active means activation above about 37%; inactive means the rest.

By UniProt entry, the sequences of proteins in these tests, tags left out. Where a name states a change or a piece, a line headed by the entry shows the natural chain unless it says otherwise.
UniProt Q96RJ0: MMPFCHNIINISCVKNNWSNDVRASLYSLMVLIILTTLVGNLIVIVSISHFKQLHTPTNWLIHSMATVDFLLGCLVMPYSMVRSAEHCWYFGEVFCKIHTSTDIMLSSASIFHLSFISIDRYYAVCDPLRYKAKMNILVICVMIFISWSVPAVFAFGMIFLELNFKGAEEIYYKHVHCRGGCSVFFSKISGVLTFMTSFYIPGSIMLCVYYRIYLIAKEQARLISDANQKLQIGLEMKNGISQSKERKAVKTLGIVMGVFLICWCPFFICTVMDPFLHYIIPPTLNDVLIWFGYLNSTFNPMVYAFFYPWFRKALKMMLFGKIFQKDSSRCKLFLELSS

Molecular target: Trace amine-associated receptor 1 (Homo sapiens) (UniProt Q96RJ0)
Experiment: TAAR1 activation by candidate antagonists – cell-based, fluorescence, counter-screen for TAAR1 antagonist project (AID 651955);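 further: CHO cells stably expressing TAAR1 with calcium dye readout; 0% = DMSO vehicle and 100% = full agonist response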
Conditions: hTAAR1 cell line, agonist mode, at 3 µM, stronger effect = higher value

**Q.** For `Cc1ccccc1OP(=O)(Nc1ccccn1)Oc1ccccc1C`, which activation is on record?
**A.** The activation was inactive: 12.8%.
